Shown are actives, neighbours in structure and some others; about 16% of the full set was active somewhere.
miR-21 reporter: miR-21 reporter, rising signal. HeLa miR-21 FLuc reporter, luciferase, 48 h. Potency, µM (highest dose often 38.3 µM). 340,000 tested, under 10 active. AID 2288; active = well fitted rising curve with a large enough effect; inconclusive = small, poorly fitted or top-dose-only effect; inactive = no such curve, though single readings can be large or run the other way;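 further: miR-21 action dims this reporter so a rising signal means less miR-21 action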
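HeLa cells stably expressing CMV-driven firefly luciferase with a downstream miR-21 binding sequence, endogenously expressing miR-21, were treated with titrations (up to about 40uM final) for 48 hours at 37 degree Celsius. Luciferase luminescence was read after lysis.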
TDP1 inh: blocks human tyrosyl-DNA phosphodiesterase 1 | Q9NUW8 | recombinant TDP1, AlphaScreen DNA substrate cleavage | Potency, µM (highest dose often 130 µM), usual class: inhibitors | 350,000 tested, 0.28% active | AID 485290; further: nearly all actives have a fitted effect of over 40% in size
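Tdp1 1 nM final; 15 min RT w/ cpd; substrate 15 nM, 5 min; beads 10 ug/ml, 10 min; AlphaScreen read. Neg ctrl: no enzyme.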
uPA surface inh: inhibitors of cell surface uPA generation; Potency, µM (top dose mostly 38.3 µM), hits mostly inhibitors; cell surface uPA generation assay, qHTS; 330,000 tested, 0.31% active; AID 540303; active means well fitted inhibition curve with a large enough effect; inconclusive means small, poorly fitted or top-dose-only effect; inactive means no such curve, though single readings can be large or run the other way; tested in mouse RAW 264.7 cells; further: nearly all actives have a fitted effect of over 55% in size
DT40 TDP1 CPT: growth inhibition of DT40 Tdp1-/-;hTDP1 cells with camptothecin (screen for TDP1 inhibitors); chicken DT40 Tdp1-/-;hTDP1 cells + 20 nM CPT, ATP luminescence, 48 h; AID 686979; 420,000 tested, 12% active; Potency, µM (top dose mostly 46.2 µM), most hits filed as inhibitors; further: nearly all actives have a fitted effect of over 55% in size
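Cell growth measured by CellTiter-Glo luminescence after a minimum 48 h, 37 C compound exposure with 20 nM CPT in Tdp1-knockout DT40 cells stably expressing hTDP1, seeded 400/well; qHTS titration format.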
DT40 TDP1 no CPT: qHTS for Inhibitors of human tyrosyl-DNA phosphodiesterase 1 (TDP1): qHTS in cells in absence of CPT. DT40 Tdp1-/- hTDP1 cells, no CPT, ATP luminescence, 48 h. Potency, µM (highest dose often 46.2 µM), actives largely listed as inhibitors. 420,000 tested, 15% active. AID 686978, 2013; further: nearly all actives have a fitted effect of over 55% in size
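Growth of hTDP1-complemented DT40 Tdp1-knockout cells is measured by ATP luminescence after at least 48 hr compound exposure at 37 °C, with DMSO substituting for the 20 nM CPT used in the parallel screen.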
A number is an active result; - = inactive; ? = inconclusive; . = no result given. Unless noted, the call rests on the fitted dose curve; in most records, active means well fitted curve in the direction sought with a large enough effect; inconclusive means small, poorly fitted or top-dose-only effect, or another doubt; inactive means no such curve, though single readings can be large; an effect the other way counts as inactive or inconclusive.

SMILES	miR-21 reporter	TDP1 inh	uPA surface inh	DT40 TDP1 CPT	DT40 TDP1 no CPT
O=C(CN1C(=O)C2C3C=CC(C3)C2C1=O)OCC(=O)c1ccc(Cl)c([N+](=O)[O-])c1 (configuration not stated)	.	.	-	21µM	?
Cc1ccc(C(=O)COC(=O)CN2C(=O)C3C4CCC(C4)C3C2=O)cc1[N+](=O)[O-] (configuration not stated)	-	-	-	?	?
COc1cccc(NC(=O)CN(C)C(=O)CSc2ncnc3sc(C)c(C)c23)c1	.	.	-	?	?
CC(=O)c1ccc(Nc2nc(C(N)CC(C)C)cs2)cc1 (configuration not stated)	.	.	.	?	16µM
CC(C)c1ccc(Nc2nc(CC(=O)O)cs2)cc1	-	-	-	-	-
Cc1csc(Nc2ccc(C(=O)O)cc2)n1	-	-	-	-	-
CC(=O)c1ccc(Nc2nc(C(N)COCc3ccccc3)cs2)cc1 (configuration not stated)	.	.	.	23µM	?
CC(C)CC(N)c1csc(Nc2ccc(C(=O)c3ccccc3)cc2)n1 (configuration not stated)	.	.	.	?	16µM
CN(C)Cc1csc(Nc2ccc(C(=O)c3ccccc3)cc2)n1	.	.	.	18µM	?
CN(CCc1ccccc1)C(=O)c1cccc(NC(=O)Cc2cccc(NC(=O)C3CCCN(S(=O)(=O)c4cccc([N+](=O)[O-])c4)C3)c2)c1 (configuration not stated)	.	.	-	?	?
O=C(Cc1cccc(NC(=O)C2CCCN(C(=O)C3CC3)C2)c1)Nc1cccc(C(=O)N2CCCC2)c1 (configuration not stated)	.	-	-	-	-
Cc1ccc(S(=O)(=O)N(C)C)cc1NC(=O)COC(=O)c1ccc2c(c1)OCO2	-	-	-	-	-
CC(C)c1ccc(CNCCSc2nnnn2-c2ccccc2)cc1	-	-	.	16µM	26µM
Fc1ccccc1CNCCCSc1nnnn1-c1ccccc1	-	-	.	16µM	?
COc1ccc(C2c3[nH]c4ccccc4c3C[C@H]3C(=O)N(c4ccccc4C(=O)NCCN4CCOCC4)C(=O)N23)cc1 (some centres not stated)	-	.	-	23µM	?
Cc1ccc(C2c3[nH]c4ccccc4c3C[C@H]3C(=O)N(c4ccccc4C(=O)N4CCC(C(=O)O)CC4)C(=O)N23)cc1 (some centres not stated)	-	.	-	-	-
O=C(NCCN1CCOCC1)c1ccccc1N1C(=O)[C@@H]2Cc3c([nH]c4ccccc34)C(c3ccc(F)cc3)N2C1=O (some centres not stated)	-	.	-	15µM	?
CCCOc1ccc(-c2nn(-c3ccccc3)cc2C2NC(=O)NC(C)=C2C(=O)OC)cc1 (configuration not stated)	-	.	.	?	16µM
COc1cc2cc(CNc3ccccc3)c(=O)n(CC(=O)Nc3ccccc3)c2cc1OC	-	-	.	?	18µM
CCc1ccc(NCc2cc3cc(OC)c(OC)cc3n(CC(=O)Nc3ccc(F)cc3)c2=O)cc1	-	-	.	.	.
CCc1ccc(NCc2cc3cc(OC)c(OC)cc3n(CC(=O)Nc3cc(C)ccc3C)c2=O)cc1	-	-	.	.	.
COc1ccccc1NC(=O)Cn1c(=O)c(CNc2ccccc2)cc2cc(OC)c(OC)cc21	-	-	.	5.2µM	6.5µM
CN1CCN(c2ncc3nc(-c4cccs4)c(=O)n(Cc4cccs4)c3n2)CC1	.	.	.	18µM	?
CN1CCN(c2ncc3nc(-c4ccccc4)c(=O)n(C4CC4)c3n2)CC1	.	.	.	21µM	?
CN1CCN(c2ncc3nc(-c4cc(F)cc(F)c4)c(=O)n(C4CC4)c3n2)CC1	.	.	.	?	-
SMILES	miR-21 reporter	TDP1 inh	uPA surface inh	DT40 TDP1 CPT	DT40 TDP1 no CPT
CN1CCN(c2ncc3nc(-c4ccccc4)c(=O)n(Cc4cccs4)c3n2)CC1	.	.	.	?	16µM
COCCn1c(=O)cnc2cnc(N3CCN(C)CC3)nc21	.	.	.	23µM	-
CCCCCC(=O)NC(NC(=S)NC1CCS(=O)(=O)C1)C(Cl)(Cl)Cl (configuration not stated)	-	-	-	?	-
O=c1c(-c2cccs2)nc2cnc(N3CCNCC3)nc2n1Cc1cccs1	.	.	.	7.3µM	13µM
O=c1c(-c2ccc(F)cc2)nc2cnc(N3CCOCC3)nc2n1Cc1cccs1	.	.	.	-	-
O=c1c(-c2ccc(Cl)cc2)nc2cnc(N3CCNCC3)nc2n1Cc1cccs1	.	.	.	6.5µM	21µM
CN1CCN(c2ncc3nc(-c4cn(C)c5ccccc45)c(=O)n(C[C@H]4CCCO4)c3n2)CC1	.	.	.	21µM	?
COCCn1c(=O)c(-c2cccs2)nc2cnc(Oc3ccc(OC)cc3)nc21	.	.	.	?	26µM
COc1ccc(CNC(=O)CCNS(=O)(=O)c2cccc3nsnc23)cc1	-	-	-	-	-
O=c1c(-c2cc(F)cc(F)c2)nc2cnc(N3CCNCC3)nc2n1Cc1cccs1	.	.	.	?	21µM
Cn1c(=O)c(-c2cccs2)nc2cnc(N3CCNCC3)nc21	.	.	.	-	-
O=c1c(-c2cccs2)nc2cnc(N3CCNCC3)nc2n1C1CC1	.	.	.	?	21µM
CN1CCN(c2ncc3nc(-c4cccs4)c(=O)n(C[C@H]4CCCO4)c3n2)CC1	.	.	.	12µM	5.2µM
CCOC(=O)c1c(NC(=O)COC(=O)C2CCC2)sc(C(=O)N(C)C)c1C	.	-	-	?	-
CCCN(C(=O)CSc1nc2cc(S(=O)(=O)N(CC)CC)ccc2o1)C1CCS(=O)(=O)C1 (configuration not stated)	.	-	-	-	-
COc1ccc(-c2nnc3sc(-c4cccs4)nn23)cc1OC	-	-	-	10µM	11µM
COc1cc(-c2nnc3sc(-c4cccs4)nn23)cc(OC)c1OC	-	-	-	?	12µM
COc1ccc(/C=C/C(=O)c2ccccc2O)cc1CN1CCOCC1	-	-	-	16µM	?
COc1ccc(/C=C2/CCc3ccccc3C2=O)cc1CN1CCOCC1	-	-	-	23µM	16µM
COc1ccc(/C=C/C(=O)c2ccc3ccccc3c2O)cc1CN1CCOCC1	-	-	-	?	18µM
COc1cc(/C=C/C(=O)c2ccccc2O)cc(OC)c1OC	-	-	?	-	?
COc1ccc(/C=C2\CCc3ccccc3C2=O)cc1Cn1nc(C)cc1C	-	-	-	?	?
Cc1nc2nc[nH]n2c(=O)c1NS(=O)(=O)c1ccc([N+](=O)[O-])cc1	-	-	-	-	-
CCOC(=O)N1CCN(C(=O)C(CC(C)C)NS(=O)(=O)c2ccc3c(c2)oc(=O)n3C)CC1 (configuration not stated)	-	-	-	-	-
CC(C)(C)NCCOc1ccc(Br)cc1	-	-	-	-	-
